Laboratory results: patent US8946269B2, “Crystalline forms of a factor Xa inhibitor” (Portola Pharmaceuticals, Inc., priority 2010, dated 2015)
Read-outs that look alike come from different tables or passages of the source.

Legend:
[1] = for Hygroscopicity, wt increase: up to 95% RH (summary table); for water gain: isothermal 25° C.
[2] = at 90 g/L, 35/65 v/v EtOH/water
[3] = 90% RH chamber for 2 weeks

Structure (SMILES)	Hygroscopicity, wt increase ([1]; listed as Betrixaban Maleate Form I)	water gain ([1]; up to 95% RH, FIG. 15, listed as polymorph of the '276 patent)	saturation temperature [2]	XRPD pattern before and after vapor sorption analysis ([1]; 1% to 95% RH, Form II crystallized from dry ethanol)	water absorbed ([1]; at 95% RH)	Water intake ([1]; at 95% RH, Form II prepared from 25:75 ethanol/water through Form III, FIG. 15)	Hygroscopicity, wt increase ([1]; listed as Betrixaban Maleate Form II)	water gain ([1]; up to 95% RH, FIG. 15)	Hygroscopicity, water adsorbed ([1]; up to 95% RH, Example 2 sample)	water adsorbed ([1]; up to 95% RH, Form II crystallized from dry ethanol, FIG. 8)	XRPD pattern after humidity storage vs original sample [3]
COc1ccc(NC(=O)c2ccc(C(=N)N(C)C)cc2)c(C(=O)Nc2ccc(Cl)cn2)c1 [Form I, reference compound]	Low (0.1% wt increase	0.07%	about 47 °C								
COc1ccc(NC(=O)c2ccc(C(=N)N(C)C)cc2)c(C(=O)Nc2ccc(Cl)cn2)c1 [Form II]				Identical XRPD pattern	up to 1%	about 1%	Moderate (1% wt increase	1%	~1 wt % water up to 95%	0.6%	same XRPD pattern as
